Results reported in paper PMC5981617, “Targeted Delivery of Cell Penetrating Peptide Virus-like Nanoparticles to Skin Cancer Cells” (Scientific Reports, 2018).

Tested on: A431 cells
Assay: Inhibition of peptide internalisation using anti-EGFr Cetuximab
Type: cell-based, human
Details: Cetuximab 10 µg/mL, 30 min pre-incubation, then FITC-NRPDSAQFWLHH 0.25 mM, 16 h, 37 °C
Procedure: A431 cells (200,000 cells/well) were seeded onto sterile glass coverslips in a six-well plate and incubated overnight at 37 °C. The medium was then removed and the cells were pre-incubated with 10 µg/mL anti-EGFR (Cetuximab clone C225; Merck, Billerica, Massachusetts, USA) for 30 min. After the pre-incubation, FITC-NRPDSAQFWLHH (0.25 mM) was added to the cells and incubated for 16 h at 37 °C in the presence of anti-EGFR (10 µg/mL). After removing the medium, the cells were washed, fixed, stained with Hoechst 33342, and viewed under a fluorescence microscope.

## Cetuximab: anti-EGFr antibody, clone C225
  Effect of anti-EGFr antibody on internalisation of the peptide into A431 cells: greatly reduced
